Source: patent publication US8008303B2, “Biphenyl derivatives and their use in treating hepatitis C” (AstraZeneca AB, priority 2005, dated 2011)

Test system: HCV replicon cells Huh 9B
Format: cell-based
Experimental: HCV replicon cells Huh 9B (ReBlikon), containing the firefly luciferase-ubiquitin-neomycin phosphotransferase fusion protein and EMCV-IRES driven HCV polyprotein with cell culture adaptive mutations.
A flask of cells was trypsinised and a cell count carried out. […] Wells G12 and H12 were left empty in the clear plate as the blank. Plates were then incubated at 37° C. in a 5% CO2 environment for 24 h.
On the following day compound dilutions are made up in medium at twice their desired final concentration in a clear round bottomed plate. All dilutions have a final DMSO concentration of 1%.
Exception: no compound was added to wells A1 and A2 of either plate and 100 μl of 1% DMSO was added to these instead. Plates were then incubated at 37° C. with 5% CO2 for 72 h.
The clear plate was stained with 100 μl 0.5% methylene blue in 50% ethanol at room temperature for 1 h, followed by solvation of the absorbed methylene blue in 100 μl per well of 1% lauroylsarcosine. Absorbance of the plate was measured on a microplate spectrophotometer (Molecular Devices) and the absorbance for each concentration of compound expressed as a proportion of the relative DMSO control.

Substance	TD50	TD50 (concentration reducing total cell area by 50% relative to DMSO controls, methylene blue, absorbance 620 nm, 72 h incubation)
6-Methoxy-biphenyl-3,4′-dicarboxylic acid 4′-{[4-(1,1-dioxo-1lambda*6*-thiomorpholin-4-ylmethyl)-phenyl]-amide} 4′{[4-(4-methanesulfonyl-piperazin-1-ylmethyl)-phenyl]-amide} [Example 262]	* (key: * < 50 μM; ** > 50 μM)	–
6-Methyl-biphenyl-3,4′-dicarboxylic acid 4′-[(1H-indol-6-yl)-amide] 3-[(4-morpholin-4-yl-phenyl)-amide] [Example 44]	–	* (* < 50 μM)

Where two headings read alike, the source gives them in different places.
